The source of these data is patent US6552060B1, “Asymmetric disulfides and methods of using same” (Prolx Pharmaceuticals, Inc., priority 1997, dated 2003).

For series [1], the system named is human primary tumors. Kind of series: Growth of human primary tumors in soft agarose. Type of series: cell-based.
Series [2] deals with MCF-7 breast cancer cells in scid mice. Nature of the series: Activity against MCF-7 breast cancer cells in scid mice. The class given is in vivo. From the text:
This is shown below in Table II.

Series [3] concerns the target T1, Human placental thioredoxin reductase (Homo sapiens, UniProt Q16881).
T1 sequence (Q16881 1-499 isoform Q16881-5): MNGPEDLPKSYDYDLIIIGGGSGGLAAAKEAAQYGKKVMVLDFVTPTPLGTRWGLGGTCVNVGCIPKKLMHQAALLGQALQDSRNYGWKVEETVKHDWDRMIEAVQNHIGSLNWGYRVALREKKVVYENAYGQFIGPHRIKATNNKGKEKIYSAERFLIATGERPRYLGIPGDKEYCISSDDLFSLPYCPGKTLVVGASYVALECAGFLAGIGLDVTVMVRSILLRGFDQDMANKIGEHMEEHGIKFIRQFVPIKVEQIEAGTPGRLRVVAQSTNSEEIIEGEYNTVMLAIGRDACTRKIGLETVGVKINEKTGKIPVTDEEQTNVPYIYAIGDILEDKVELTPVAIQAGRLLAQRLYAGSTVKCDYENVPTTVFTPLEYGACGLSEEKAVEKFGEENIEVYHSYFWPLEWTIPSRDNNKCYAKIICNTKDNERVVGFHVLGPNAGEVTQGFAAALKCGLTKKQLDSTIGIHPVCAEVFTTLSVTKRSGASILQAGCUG
Nature of the series: NADPH oxidation by thioredoxin reductase with the disulfide as substrate, or with thioredoxin and insulin as final electron acceptor and the disulfide as inhibitor. Type of series: biochemical. Conditions: competitive inhibitors of the reduction of thioredoxin by thioredoxin reductase. The procedure:
The thioredoxin was stored at −20° C. with 5 mM dithiothreitol which was removed before use with a desalting column (PD10, Pharmacia, Uppsala, Sweden).
Asymmetrical 2-imidazolyl disulfides which were used as a basis for further development and identified below in Table 1. In Table I, NADPH oxidation by thioredoxin reductase was measured spectrophotometrically as described with either the disulfide as the electron acceptor (substrate) or with thioredoxin and insulin as the final electron acceptor and the disulfide as inhibitors. The reactions were initiated by the addition of NADPH. Km and Ki values were calculated from Lineweaver-Burk plots of the data.
The compounds of Table 1 were synthesized by a method described previously and recrystallized prior to use. Stock solutions of the disulfides were prepared at 10 mM in ethanol and diluted in aqueous media just prior to use. N-ethylmaleimide (NEM), diamide, and DTT were obtained from Sigma Chemical Co. (St. Louis, Mo.). All other chemicals used were of reagent grade. […]

Take `CCC(C)SSc1ncc[nH]1` (centres unmarked) [IV-2, 1-methylpropyl 2-imidazolyl disulfide]: in series [1], the “tumor type selectivity in soft agarose” value was “selectivity for myeloma, cervical and breast cancer”. Further, the Toxicity dead/injected was 2/8 in series [2] (5 mg/kg/day i.p. for 14 days), 0/7 in series [2] (10 mg/kg/day i.p. for 14 days) and 0/7 in series [2] (15 mg/kg/day i.p. for 14 days). The affinity in series [3], expressed as Ki, was 31 µM.
